{"source": "patent US6602856B1", "about": "“Antagonists of alpha-melanocyte stimulating hormone and methods based thereon” (priority 1995, dated 2003)"}
{"molecular_target": "T1, endogenous amphibian MSH-receptors (Xenopus laevis, UniProt A0A1L8GF34)", "T1 sequence (A0A1L8GF34 1-317)": "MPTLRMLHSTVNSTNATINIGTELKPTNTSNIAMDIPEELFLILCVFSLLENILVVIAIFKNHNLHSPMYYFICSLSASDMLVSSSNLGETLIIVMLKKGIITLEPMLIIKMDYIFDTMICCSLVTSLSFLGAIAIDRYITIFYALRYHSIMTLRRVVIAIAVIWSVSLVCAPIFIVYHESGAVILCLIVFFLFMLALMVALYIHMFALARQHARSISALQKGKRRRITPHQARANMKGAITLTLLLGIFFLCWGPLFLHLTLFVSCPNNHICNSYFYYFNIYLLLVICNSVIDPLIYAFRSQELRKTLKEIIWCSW", "format": "cell-based", "details": "against 15 nM α-MSH; mean±SE", "description": "(§1) Melanin dispersion responses were quantitated by measuring transmittance through a monolayer of cultured melanophores pretreated with 1 nM melatonin (Potenza, et. al., 1992, Anal Biochem. 206, 315-22) and curve fit with a logistic equation (De Lean et al., 1978, Am J. Physiol. 235, E97-E102).\n(§2) Broken lines indicate 99% confidence level.\n(§3) Each point represents the mean and SSD of four independent transmittance measurements. Ti=initial transmittance (2 min.). Tf=final transmittance (60 min.).\n(§4) For dose-response studies all tripeptides were synthesized on Rink Amide MBHA resin 0.25 mmol scale using standard Fmoc chemistry. After synthesis, peptides were purified suing HPLC and reverse-phase chromatography on a C18 column. The dose-response curves were obtained by microtiter plate assays (Potenza et al, 1992, Pigment Cell Res. 5, 372-378). Melanophore cells (18,000/well) were plated on 96-well tissue culture plates (Falcon).", "units": {"IC50": "µM"}}
{"substance": "D-Trp-Arg-Nle-NH2 [A2]", "IC50": "0.93 ± 0.22"}
{"molecular_target": "T1, endogenous amphibian MSH-receptors", "format": "cell-based", "details": "against 15 nM α-MSH; melanophores pretreated with 1 nM melatonin; mean±SE", "description": "as §1, §2, §3, §4", "units": {"IC50": "µM"}}
{"substance": "D-Trp-Arg-D-Nle-NH2 [A5]", "IC50": "9.9 ± 1.8"}
{"substance": "D-Trp-Arg-Abu-NH2 [A7]", "IC50": "82 ± 41"}
{"substance": "D-Phe-Arg-Nle-NH2 [C1]", "IC50": "4.4 ± 1.2"}
{"substance": "D-Trp-Arg-D-Arg-NH2 [A10]", "IC50": "664 ± 397"}
{"substance": "D-Trp-Abu-Nle-NH2 [B7]", "IC50": "405 ± 69"}
{"substance": "D-Trp-Lys-Nle-NH2 [B1]", "IC50": "15 ± 1"}
{"substance": "Trp-Arg-Nle-NH2 [C4]", "IC50": "100 ± 2"}
{"substance": "D-Trp-Arg-Nva-NH2 [A3]", "IC50": "3.3 ± 1.1"}
{"substance": "D-Trp-Arg-Nle-NH2 [A2]", "IC50": "0.93 ± 0.22"}
{"substance": "D-Trp-Met-Nle-NH2 [B6]", "IC50": "121 ± 27"}
{"substance": "D-His-Arg-Nle-NH2 [C5]", "IC50": "318 ± 105"}
{"substance": "Ac-D-Trp-Arg-Nle-NH2 [C3]", "IC50": "43 ± 8"}
{"substance": "D-Trp-Nle-Nle-NH2 [B4]", "IC50": "59 ± 12"}
{"substance": "D-Tyr-Arg-Nle-NH2 [C2]", "IC50": "28 ± 2"}
{"substance": "D-Trp-Arg-Arg-NH2 [A9]", "IC50": "261 ± 68"}
{"substance": "D-Trp-Leu-Nle-NH2 [B3]", "IC50": "48 ± 2.2"}
{"substance": "D-Trp-Ala-Nle-NH2 [B5]", "IC50": "65 ± 18"}
{"substance": "D-Trp-D-Arg-Nle-NH2 [B2]", "IC50": "30 ± 11"}
{"molecular_target": "T1, endogenous amphibian MSH-receptors", "format": "cell-based", "details": "against 15 Nm α-MSH; mean±SE", "description": "as §1, §2, §3, §4", "units": {"IC50": "µM"}}
{"substance": "D-Trp-Arg-Nle-NH2 [A2]", "IC50": "0.93 ± 0.22"}
{"molecular_target": "T1, endogenous amphibian MSH-receptors", "format": "cell-based", "details": "agonist, Xenopus melanophores; read-out: EC50 (pigment dispersion)", "description": "as §1, §2, §3, §4", "units": {"EC50": "µM"}}
{"substance": "α-melanocyte stimulating hormone [α-MSH, reference compound]", "EC50": "~0.002"}
{"molecular_target": "T1, endogenous amphibian MSH-receptors", "format": "cell-based", "details": "pigment dispersion, transmittance 2 min to 60 min, FIG. 5; read-out: EC50 for α-MSH alone", "description": "as §1, §2, §3, §4", "units": {"EC50": "µM"}}
{"substance": "α-melanocyte stimulating hormone [α-MSH, reference compound]", "EC50": "0.0025 ± 0.0003"}
